Measured values as given in US20150018566A1, “TUBULIN BINDING AGENTS” (priority 2011, published 2015).

Protein sequences, listed by entry. Tags and fused reporters are not part of them. Lines headed by an entry give the natural chain unless they say otherwise; changes in a name come on top.
UniProt P15144: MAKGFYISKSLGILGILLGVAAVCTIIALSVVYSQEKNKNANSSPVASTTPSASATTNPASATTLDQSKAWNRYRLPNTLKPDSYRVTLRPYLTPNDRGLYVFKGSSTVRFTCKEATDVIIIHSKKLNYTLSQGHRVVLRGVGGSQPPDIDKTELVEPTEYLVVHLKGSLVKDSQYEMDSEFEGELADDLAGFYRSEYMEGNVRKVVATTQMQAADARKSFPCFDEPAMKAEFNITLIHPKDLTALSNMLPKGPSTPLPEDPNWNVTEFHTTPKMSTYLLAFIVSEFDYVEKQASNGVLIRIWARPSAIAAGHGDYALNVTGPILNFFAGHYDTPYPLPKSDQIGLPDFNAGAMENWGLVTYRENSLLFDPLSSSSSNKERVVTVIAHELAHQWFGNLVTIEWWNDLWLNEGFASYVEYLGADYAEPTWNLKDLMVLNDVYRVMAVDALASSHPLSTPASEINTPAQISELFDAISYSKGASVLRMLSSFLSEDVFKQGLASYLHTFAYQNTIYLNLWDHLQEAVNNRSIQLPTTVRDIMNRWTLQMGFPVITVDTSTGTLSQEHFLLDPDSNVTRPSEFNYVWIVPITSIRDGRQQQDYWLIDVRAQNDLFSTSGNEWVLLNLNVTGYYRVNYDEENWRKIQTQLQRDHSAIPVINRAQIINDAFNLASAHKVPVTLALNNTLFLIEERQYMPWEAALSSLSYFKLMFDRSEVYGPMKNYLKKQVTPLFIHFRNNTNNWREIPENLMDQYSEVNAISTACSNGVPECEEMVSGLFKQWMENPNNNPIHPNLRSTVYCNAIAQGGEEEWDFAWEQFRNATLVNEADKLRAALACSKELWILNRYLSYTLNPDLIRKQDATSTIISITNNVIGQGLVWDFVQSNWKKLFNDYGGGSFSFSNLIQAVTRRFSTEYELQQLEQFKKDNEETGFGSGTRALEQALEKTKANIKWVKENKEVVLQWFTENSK

Assays:
[1] = biological target: T1, APN enzyme present on HUVECs (Homo sapiens, UniProt P15144); test: APN cell-based assay, HUVECs; settings: 2 h incubation
T1 construct: The presence of APN-expres sing cells replaced the step of the addition of the actual APN enzyme; host or cells: HUVECs
Method: (§1) To further investigate the APN inhibitory effect of the hybrids the APN cell-based assay was carried out as previously described using both HUVECs and PC-3 cells. In order to exclude any possible cytotoxic effects of the tubulin component of the hybrids that could interfere with the outcome of the results, it was necessary to perform cytotoxicity assays. For this purpose, the MTT assay was used as previously described; however the duration of compounds' incubation was modified to 2 h in order to correlate with the incubation period of APN cell-based assay. The presence of APN-expres sing cells replaced the step of the addition of the actual APN enzyme and the rest of the protocol remained the same. The release of the resulting product p-nitroaniline was measured spectrophotometrically at 405 nm and the level of APN present […] the cells was directly related to the intensity of the colour absorbance.
HUVECs/PC-3 cells' surface APN activity was estimated spectrophotometrically using L-leucine-p-nitroanilide as an APN substrate. 1×10^6 cells/ml ([…]) were seeded in 96-well plate and incubated overnight at 37° C. […] Following 2 h incubation at 37° C., absorbance was measured at 405 nm using a FLUOstar OPTIMA microplate reader (BMG labtech). […] The percentage APN inhibition was determined using the formula below and where appropriate, IC50 values were obtained. […]

[2] = biological target: T2, APN enzyme present on PC-3 cells (Homo sapiens, UniProt P15144); test: APN cell-based assay, PC-3 cells; settings: 2 h incubation
T2 construct: PC-3 cell line was selected due to its high expression of APN; host or cells: PC-3
Method: as §1
HUVECs/PC-3 cells' surface APN activity was estimated spectrophotometrically using L-leucine-p-nitroanilide as an APN substrate. 1×10^6 cells/ml ([…]) were seeded in 96-well plate and incubated overnight at 37° C. The following day cell medium was replaced by various concentrations of compounds diluted in HEPES buffer (100 μl). […] L-leucine-p-nitroanilide (50 μl) was added to each well to give a final concentration of 2 mM. Following 2 h incubation at 37° C., absorbance was measured at 405 nm using a FLUOstar OPTIMA microplate reader (BMG labtech). Each compound concentration was tested in quadruplicate and each experiment was performed at three independent times. The percentage APN inhibition was determined using the formula below and where appropriate, IC50 values were obtained.
% APN inhibition=100−[(mean Abs of test compound)/(mean Abs of control)]*100

percentage APN inhibition ([1]; 1 μM): 11.88±3.27%
percentage APN inhibition ([1]; 5 μM): 17.86±0.75%
percentage APN inhibition ([2]; 1 μM): 10.84±3.24%
percentage APN inhibition ([2]; 5 μM): 15.1±0.97%
percentage APN inhibition ([2]; 10 μM): 17.3±5.72%
percentage APN inhibition ([2]; 20 μM): 36.11±0.9%
Structure (SMILES): CC(C)C[C@H](NC(=O)[C@@H](O)[C@H](N)Cc1ccccc1)C(=O)O.Cl [Bestatin, bestatin hydrochloride, reference compound]
